# Ab-14 heavy chain CDR variants: yeast mating affinities

Data: MIT Lincoln Laboratory AlphaSeq set, Engelhart et al. 2022, doi:10.1038/s41597-022-01779-4, as distributed in FLAb.

All variants were tested on one target, the spike HR2 peptide PDVDLGDISGINAS (SARS-CoV-2).

Parent scFv Ab-14: VH joined to VL by the linker GGGGSGGGGSGGGGS. Changes lie in the heavy chain CDRs alone.
VH: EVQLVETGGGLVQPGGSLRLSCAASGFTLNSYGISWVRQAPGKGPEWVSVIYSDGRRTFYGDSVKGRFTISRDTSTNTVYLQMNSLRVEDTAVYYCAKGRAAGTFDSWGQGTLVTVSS
VL: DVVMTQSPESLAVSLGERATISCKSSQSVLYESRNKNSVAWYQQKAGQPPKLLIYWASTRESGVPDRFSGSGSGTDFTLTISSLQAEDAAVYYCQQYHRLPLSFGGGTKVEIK

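The parent was found by panning a naive human phage display library on the peptide. In library AAYL49, one, two or three CDR residues were substituted; doubles and triples were drawn at random. The scFvs were displayed on barcoded MATa yeast, the peptide on MATalpha yeast. Mating (16 h, 30 °C) was followed by selection of diploids and sequencing of their barcodes. Read counts were normalised to the haploid input and turned into Kd by a linear fit to BCL2-family pairs of known affinity, for each replicate. There are three technical replicates.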

Substitutions are numbered in sequence along the VH above, starting at 1 (not Kabat). The Kd shown is the geometric mean over detected replicates; a lower Kd is a better binder. An entry "not detected" has no value in the source: the pair was not observed among the diploids in any replicate. This suggests poor binding but is not conclusive. Three control strains display no target. For library AAYL49, 15% of the pairings with them gave a signal, with a median of 11 µM and one signal in twenty below 680 nM, so weak values seen in few replicates may be background. For each scFv, signals with the empty controls are counted beside the result.

apparent Kd,detected,control signals,changes
76 µM,1 of 3,2 of 9,T28I/V64N/S107R
not detected,0 of 3,0 of 9,V50L/Y60G/T104N
not detected,0 of 3,0 of 9,I51F/G61D/G99I
52 µM,3 of 3,6 of 9,G26T/S35T/V50S
not detected,0 of 3,1 of 9,Y52T/G61S/R100C
not detected,0 of 3,5 of 9,S31V/I51D/Y52I
89 µM,1 of 3,2 of 9,R57M/R100K/G103E
not detected,0 of 3,0 of 9,G33V/V50Y/S107C
85 µM,3 of 3,5 of 9,L29S/G33C/A101C
not detected,0 of 3,1 of 9,R56Y/R57N/T58D
4.2 µM,1 of 3,3 of 9,F27T/G55T/A102V
830 nM,1 of 3,2 of 9,G55H/V64T/D106V
not detected,0 of 3,1 of 9,Y60Q/K65L/A101G
not detected,0 of 3,0 of 9,Y32C/G33P/R100F
not detected,0 of 3,0 of 9,F59P/S107W
not detected,0 of 3,1 of 9,Y52R/G61M/A102Q
not detected,0 of 3,4 of 9,V50I/R100M/T104N
2.4 µM,1 of 3,1 of 9,Y52I/K65W/T104D
not detected,0 of 3,0 of 9,Y60I/S63E/A102R
not detected,0 of 3,2 of 9,G33S/G61V/R100T
36 µM,1 of 3,2 of 9,G26L/S35T/A102Q
not detected,0 of 3,0 of 9,D54V/R56Q/G61L
not detected,0 of 3,0 of 9,S31C/I51C/R100N
95 µM,3 of 3,7 of 9,R100T/F105S/S107A
not detected,0 of 3,0 of 9,G55R/T58R/F105H
not detected,0 of 3,0 of 9,N30L/S35Y/V50E
not detected,0 of 3,0 of 9,G26S/L29F/A101I
not detected,0 of 3,3 of 9,N30M/V50R/D62P
23 µM,1 of 3,1 of 9,I51L/R56M/F59P
not detected,0 of 3,0 of 9,L29W/R57A/G61L
9.1 µM,2 of 3,4 of 9,L29T/S53K
not detected,0 of 3,0 of 9,S31G/G33V/F59P
not detected,0 of 3,1 of 9,S53Q/T104D
2.5 µM,1 of 3,1 of 9,I34K/Y60K/A102Y
not detected,0 of 3,3 of 9,G33D/R56K
25 µM,1 of 3,2 of 9,G33A/G61H/G99R
not detected,0 of 3,0 of 9,I51E/R57Q/F59T
not detected,0 of 3,2 of 9,S35I/R56F/D106S
not detected,0 of 3,0 of 9,T58I/G99Y/S107M
not detected,0 of 3,3 of 9,V50I/G61V/T104D
not detected,0 of 3,0 of 9,T28E/F105E
not detected,0 of 3,1 of 9,F27W/G61R/V64D
not detected,0 of 3,1 of 9,G33Q/Y52N
not detected,0 of 3,1 of 9,Y32P/G55L/K65E
2.4 µM,1 of 3,1 of 9,S31C/G33A/I51H
not detected,0 of 3,2 of 9,F27K/G55N/R57D
not detected,0 of 3,0 of 9,G26N/S53E/V64T
2.5 µM,1 of 3,1 of 9,I34D/K65M

The first 3 variants above that were never detected:

| changes | apparent Kd | detected | control signals |
|---|---|---|---|
| V50L/Y60G/T104N | not detected | 0 of 3 | 0 of 9 |
| I51F/G61D/G99I | not detected | 0 of 3 | 0 of 9 |
| Y52T/G61S/R100C | not detected | 0 of 3 | 1 of 9 |

For reference, the parent read 4.4 nM as the reference entry and 13 µM (one replicate of three) as a member of this library.